Target: hMC4R (Homo sapiens, UniProt P32245)
Experiment: cAMP assay (intracellular cAMP accumulation) at hMC4R
Assay type: cell-based
Parameters: expressed in transfected cells
Settings: Table 2; cAMP activity; read-out: hMC4R % max effect

The chains behind the UniProt entries cited, without tags or fusion partners.
UniProt P32245, whole entry: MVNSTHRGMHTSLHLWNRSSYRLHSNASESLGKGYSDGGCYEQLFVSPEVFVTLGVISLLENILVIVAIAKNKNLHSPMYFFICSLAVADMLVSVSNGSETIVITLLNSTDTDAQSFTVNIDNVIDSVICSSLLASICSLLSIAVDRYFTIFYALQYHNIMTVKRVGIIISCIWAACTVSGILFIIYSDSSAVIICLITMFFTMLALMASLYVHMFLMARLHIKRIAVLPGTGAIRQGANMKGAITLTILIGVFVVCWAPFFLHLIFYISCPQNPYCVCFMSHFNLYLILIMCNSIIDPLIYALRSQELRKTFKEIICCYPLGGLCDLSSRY

SMILES: CCCC[C@H](NC(=O)[C@@H](NC(=O)[C@@H](N)Cc1ccc(O)cc1)C(C)C)C(=O)NCC(=O)N[C@@H](Cc1cnc[nH]1)C(=O)N[C@H](Cc1ccc2ccccc2c1)C(=O)N[C@@H](CCCN=C(N)N)C(=O)N[C@H](Cc1c[nH]c2ccccc12)C(=O)N[C@@H](CC(=O)O)C(=O)N[C@@H](CCCN=C(N)N)C(=O)N[C@@H](Cc1ccccc1)C(=O)NCC(N)=O [SEQ ID NO. 11, H-Tyr-Val-Nle-Gly-His-D-Nal(2′)-Arg-D-Trp-Asp-Arg-Phe-Gly-NH2]
- Emax: 18%

Reference: patent publication US10188704B2, “Enhanced melanoma cancer prevention by novel melanotropins” (ARIZONA BOARD OF REGENTS ON BEHALF OF THE UNIVERSITY OF …, priority 2015, dated 2019)
